Data on seven compounds can be found in US9884844B2 (priority 2012, dated 2018).

The test addresses μ-opioid receptor (Homo sapiens, UniProt P35372). Nature of the test: cAMP assay on CHO cells expressing μ-opioid receptor (MOR assay). The note with it: read-out: MOR EC50. In general terms: cAMP levels reflect the balance of adenylyl cyclase and phosphodiesterase activity.
Consider `CNC(=O)C[C@]1(F)C(=O)N(C2CCN(C3c4cccc5cccc(c45)[C@@H]3O)CC2)c2ccccc21` (single isomer, unassigned), for which the EC50 – broadly, the concentration needed to bring the measured effect to its halfway point – is greater than 5000 nM.

In the case of `CNC(=O)CC1(OC)C(=O)N(C2CCN([C@H]3c4cccc5cccc(c45)[C@@H]3O)CC2)c2ccccc21` (stereo partly shown), the EC50 lay within 100 to 1000 nM.

Take `CNC(=O)CC1(O)C(=O)N(C2CCN([C@H]3c4cccc5cccc(c45)[C@]3(C)O)CC2)c2ccccc21` (stereo partly shown): the EC50 is 1000 to 5000 nM.

Consider `CNC(=O)C[C@]1(F)C(=O)N(C2CCN(C3c4cccc5cccc(c45)[C@H]3O)CC2)c2ccccc21` (single isomer, unassigned), for which the 50% effective concentration (EC50) was greater than 5000 nM.

As for `CN(C)C(=O)CC1(F)C(=O)N(C2CCN(C3Cc4cccc5cccc3c45)CC2)c2ccccc21` (stereo not shown), the EC50 fell in the range of 100 to 1000 nM.

In the case of `CNC(=O)C[C@]1(C)C(=O)N(C2CCN([C@@H]3c4ccccc4CC[C@H]3O)CC2)c2ccccc21`, the EC50 is greater than 5000 nM.

As to `CCOC(=O)CC1C(=O)N(C2CCN([C@H]3c4cccc5cccc(c45)[C@H]3C)CC2)c2ccccc21` (stereo partly shown), the EC50 was in the range of 100 to 1000 nM.
